From publication PMC8665103 (Journal of medicinal chemistry, 2021)

Format: physicochemical
Conditions: DLS, 50 mM KPi pH 7.0, 1% DMSO; literature hits

## O=C1CCc2ccc(OCCCCN3CCN(c4cccc(Cl)c4Cl)CC3)cc2N1 [Aripiprazole]
  CAC (critical aggregation concentration): 19 µM
